IL2 activator – qHTS of IL-2 Activators; activation, % (series mostly up to about 46 µM); 0.065% of 360,000 active; IL-2 activation reporter assay, cell-based qHTS; stimulated with anti-CD3/CD4/CD28 beads; in transgenic mouse T cells; AID 652025, 2013; in the data active = activation above about 50%; inconclusive = mostly about 30% to 49%
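Using fluorescent plate cytometry, EGFP and DsRed are detected in transgenic mouse T cells stimulated 18 h at 37 degrees C with antibody-coated beads after 60 min compound pretreatment.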
Rango dissoc inh – qHTS Assay for Inhibitors of RanGTP induced Rango (Ran-regulated importin-beta cargo) - Importin beta complex dissociation; Biochemical FRET Rango-importin beta, RanGTP-induced dissociation; AID 540253, 2011; Potency, µM (titrated, usually from 46.1 µM); 0.071% of 340,000 active; calls by dose curve; also: nearly all actives have a fitted effect of over 45% in size
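Rango (0.1 uM)–importin beta (0.25 uM) complex; RanGTP-RCC1 trigger; 45 min RT; CFP/YFP FRET read.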
AT treatment – qHTS Assay for Identifying a Potential Treatment of Ataxia-Telangiectasia; F2112 A-T fibroblasts, KAP-1 phosphorylation AlphaLISA; neocarzinostatin DNA damage 30 min before lysis; 0.19% of 320,000 active; Potency, µM (doses to about 57.5 µM), most hits filed as activators; also: nearly all actives have a fitted effect of over 45% in size
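hTERT-immortalized A-T patient fibroblasts (F2112), 500 cells/well in OPTI-MEM, 1% FBS, got compounds for 60 min, then NCS for 30 min at 37C. Lysates were then assayed for phospho-KAP-1 by AlphaLISA (anti-pKAP1 donor, anti-KAP1 acceptor beads), 6 hr at 25C.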
PKM2 activator – qHTS Assay for Activators of Human Muscle isoform 2 Pyruvate Kinase | Pyruvate kinase PKM (Homo sapiens), P14618 | AID 1631, 2009 | Potency, µM (doses to about 57.5 µM), actives largely listed as activators | 0.34% of 260,000 active | purified PKM2, Kinase-Glo ATP luminescence, activation; response scale: 0% is enzyme alone, no compound; also: nearly all actives have a fitted effect of over 55% in size
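ATP formation by purified human PK-M2, quantified via coupled luciferase luminescence after 1 h at room temperature with 0.1 mM ADP and 0.5 mM PEP final.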
Rango complex inh – qHTS Assay for Inhibitors of Rango (Ran-regulated importin-beta cargo) - Importin beta complex formation. Rango CFP/YFP FRET sensor + importin beta, 45 min. Potency, µM (series often up to 92.2 µM). 0.031% of 340,000 active; calls by dose curve; also: nearly all actives have a fitted effect of over 15% in size
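Inhibition scored from the CFP 486 nm/YFP 530 nm FRET ratio 45 min after adding 0.125 microM importin beta to 50 nM Rango biosensor preincubated 5 min with compound (room temperature, PBS with DTT, Tween-20, BSA). No-importin wells as positive control.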
A number is an active result; n = inactive; u = inconclusive; x = no result; [ ] = remark or other dose. The list is not random: actives were taken first. Their share in the collection is about 0.59%. Unless noted, calls follow the shape of the dose curve; as a rule, active = well fitted activation curve with a large enough effect; inconclusive = small, poorly fitted or top-dose-only effect; inactive = no such curve, though single readings can be large or run the other way.

Chains of the proteins cited; added tags and fusions are not shown.
Pyruvate kinase PKM (Homo sapiens), P14618, UniProt P14618, whole entry, looked up: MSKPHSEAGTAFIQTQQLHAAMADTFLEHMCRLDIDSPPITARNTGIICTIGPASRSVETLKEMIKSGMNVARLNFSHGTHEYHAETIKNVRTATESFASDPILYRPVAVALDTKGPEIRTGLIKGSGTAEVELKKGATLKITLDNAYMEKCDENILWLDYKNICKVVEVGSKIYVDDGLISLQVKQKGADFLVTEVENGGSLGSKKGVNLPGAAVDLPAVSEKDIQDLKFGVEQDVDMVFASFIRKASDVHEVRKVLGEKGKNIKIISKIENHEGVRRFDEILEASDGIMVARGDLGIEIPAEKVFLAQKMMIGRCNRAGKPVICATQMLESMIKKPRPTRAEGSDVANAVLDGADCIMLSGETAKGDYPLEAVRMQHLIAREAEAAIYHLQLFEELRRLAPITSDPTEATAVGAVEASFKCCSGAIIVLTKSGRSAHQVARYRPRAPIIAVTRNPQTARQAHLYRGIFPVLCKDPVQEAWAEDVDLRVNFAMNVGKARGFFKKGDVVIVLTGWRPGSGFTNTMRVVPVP

SMILES | IL2 activator | Rango dissoc inh | AT treatment | PKM2 activator | Rango complex inh
COc1ccc2c(CC(=O)N3CCN(S(=O)(=O)c4ccc(F)cc4)CC3)coc2c1 | n | n | n | x | n
CS(=O)(=O)N1CCN(C(=O)COc2ccc3ccccc3c2)CC1 | n | n | n | n | n
C=CCN(CC=C)CC(=O)Nn1c(C)ccc1C | n | n | x | x | n
COc1cc(OC)cc(-c2nnc(Nc3nc4c(F)cccc4s3)o2)c1 | n | n | n | 7.08µM | n
Fc1cccc2sc(Nc3nnc(-c4ccccc4)o3)nc12 | n | n | x | n | n
CCOC(=O)c1c(C)oc2c1c(CN1CCN(C(=O)OCC)CC1)c(O)c1ccccc12 | n | n | 31.6µM | n | n
CCOC(=O)c1c(C)oc2c1c(CN1CCN(CCO)CC1)c(O)c1ccccc12 | n | n | n | n | n
O=NN(CCCl)C(=O)NCC1=C[N+](=O)CC=C1 | n | x | x | x | x
Cc1ccc(S(=O)(=O)Nc2ccccc2/C=N/c2nc3ccccc3n2C)cc1 | n | 8.2µM[inhibitor] | n | n | u
Cc1ccc(S(=O)(=O)Nc2ccccc2C=Nc2cccc(C)c2C)cc1 | n | 7.31µM | n | n | u
CC(NC(=O)COC(=O)c1cc(=O)c2ccccc2o1)c1ccccc1 (stereo unspecified) | n | n | n | x | n
C/C=C\C=C\C(=O)N1CC2(CC(c3cccc(NC(=O)COc4ccc(Cl)cc4)c3)=NO2)C[C@H]1C(N)=O (stereo partly specified) | n | n | n | 15.8µM | n
C/C=C(\C)C(=O)N1CC2(CC(c3cccc(NC(=O)COc4ccc(Cl)cc4)c3)=NO2)C[C@@H]1C(N)=O (stereo partly specified) | n | n | n | n | n
C/C=C\C=C/C(=O)Nc1cccc(C2=NOC3(C2)C[C@@H](C(N)=O)N(C(=O)COc2ccc(Cl)cc2)C3)c1 (stereo partly specified) | n | n | 3.16µM | 15.8µM | n
C/C=C\C=C\C(=O)N1CC2(CC(c3cccc(NC(=O)CC)c3)=NO2)C[C@H]1C(N)=O (stereo partly specified) | n | n | n | 7.94µM | n
N#Cc1ccccc1COC(=O)CCCC1=NS(=O)(=O)c2ccccc2N1 | n | n | n | x | n
CCOC(=O)C(Sc1cc(-c2ccccc2)nc2ncnn12)C(C)=O (stereo unspecified) | n | 11.6µM | n | n | u
Cc1cc(C)c2c(N)c(C(=O)NN)sc2n1 | n | u | 17.8µM | n | u
CCOC(=O)c1sc2nc(C)cc(C)c2c1N | n | n | u | n | n
COc1ccc(/C=C/c2c(-c3ccc(OC)cc3)sc3cc(OC)c(OC)cc23)cc1 | n | n | n | x | n
Cc1cc(C)n2c(SCc3ccc(Br)cc3)nnc2n1 | n | n | 3.55µM | n | n
COc1ccc(Cl)cc1C1=NOC2(CCC2)C(=O)N1Cc1cccc(C#N)c1 | n | x | x | x | x
CCOc1ccc(-n2nnc3c(=O)n(CC(=O)Nc4cc(C)on4)cnc32)cc1 | n | n | n | 15.8µM | n
CCN(CC)C1=CC2=CC(=C(C#N)C#N)CCC2CC1 (stereo unspecified) | 102.3 | u | n | n | u
CCCCN(C)C1=CC2=CC(=C(C#N)C#N)CCC2CC1 (stereo unspecified) | n | u | n | n | u
SMILES | IL2 activator | Rango dissoc inh | AT treatment | PKM2 activator | Rango complex inh
COc1cc(C=C(c2nc3ccccc3s2)c2nc3ccccc3s2)ccc1O | n | n | n | n | u
COc1ccc(C=C(c2nc3ccccc3s2)c2nc3ccccc3s2)cc1O | n | n | 28.2µM | n | u
Cc1c(NC(=O)C(C)OC(=O)c2ccc([N+](=O)[O-])cc2Cl)c(=O)n(-c2ccccc2)n1C (stereo unspecified) | n | n | x | x | n
Cn1c(CSc2nc3ccc(Br)cc3[nH]2)nc2ccccc21 | n | n | n | n | n
Cn1c(CSc2nnc(SCc3ccccc3)s2)nc2ccccc21 | n | n | n | 17.8µM | n
O=C(CNS(=O)(=O)c1cccs1)N1CCN(c2ccccn2)CC1 | n | n | n | 22.4µM | n
O=C(CNS(=O)(=O)c1cccs1)N1CCN(c2ccccc2F)CC1 | n | n | n | n | n
COc1ccc(S(=O)(=O)N2CCC[C@H]2C(=O)N2CCC[C@H]2C(=O)N(C)Cc2ccccc2)cc1C | n | x | x | x | x
COc1ccc(N2C(=O)/C(=C/c3cccs3)NC2=S)cc1 | n | 16.4µM[inhibitor] | n | n | u
O=S(=O)(c1ccccc1)c1ccc(NCc2ccco2)cc1 | n | n | n | 31.6µM | n
O=S(=O)(Nc1nc2ccccc2nc1NCc1ccco1)c1ccccc1 | n | n | n | n | n
CCc1nc2ccc(C(=O)NCCCN3CCCC3=O)cn2c1N(C)C(=O)Nc1ccccc1OC | n | x | x | x | x
O=C(Cc1ccccc1)Nc1cccc(N2C(=O)C=CC2=O)c1 | n | n | n | 2.82µM | n
COc1cccc(NC(=O)Cc2ccccc2)c1 | n | n | n | n | n
CN(C)c1ccc(CC(=O)N2CCCC(c3cc(C(=O)Nc4ccc(C(C)(C)C)cc4)no3)C2)cc1 (stereo unspecified) | n | x | x | x | x
CC1CCCC(C)N1CCCNC(=O)Cn1ncc2c3ccccc3n(C)c2c1=O (stereo unspecified) | n | n | 7.08µM | x | n
Cc1ccc(S(=O)(=O)/N=c2\sccn2C)cc1 | n | n | n | 17.8µM | n
Cn1ccs/c1=N\S(=O)(=O)c1ccc(F)cc1 | n | n | n | n | n
CN(C)c1ccc(Cl)c(NC(N)=S)c1 | n | x | x | x | x
COc1ccc(-c2c3c(=O)n(C)c(=O)n(C)c3cn2-c2ccccc2)cc1 | n | n | n | n | n
COc1ccc(-c2c3c(=O)n(C)c(=O)n(C)c3cn2-c2ccc(O)cc2)cc1 | n | n | 31.6µM | n | n
CC(=O)c1ccc(OC(C)C(=O)NC2CCCCC2C)cc1 (stereo unspecified) | n | n | n | x | n
CC(C)Oc1ccc(C(=O)OC(C)C(=O)NC2CCCCC2C)cc1 (stereo unspecified) | n | n | n | n | 25.9µM
O=C(Nc1ccc2nc3n(c(=O)c2c1)CCCCC3)C(=O)N1CCN(c2ccccc2)CC1 | n | n | n | n | n
C[N+](C)(CCOc1ccccc1)Cc1ccccc1 | n | n | x | x | n
Cc1cc(C(C)(C)CC(C)(C)C)ccc1OCCOCC[N+](C)(C)Cc1ccccc1 | n | n | n | x | 65.1µM
CCN1C(=O)N[C@H](c2ccccc2)C(C(C)=O)=C1C | n | n | x | n[11.5 µM] | n
